Legend:
[1] = molecular target: His6-RAGE VC1 natural domain; experiment: electrochemical biosensor (Osteryoung square-wave voltammetry of the Cu(II) redox current); His6-RAGE VC1 immobilised on a gold electrode through NAC/DPTA-Cu(II); Aβ1–40 (0.001-1 μM) in filtered human plasma diluted twice with TRIS buffer (50 mM TRIS hydrochloride, 300 mM NaCl, pH 7.4); response (In−I0)/I0 × 100%; n = 7
[2] = molecular target: His6-RAGE VC1 natural domain; experiment: electrochemical biosensor (Osteryoung square-wave voltammetry of the Cu(II) redox current); His6-RAGE domain immobilised on a gold electrode through NAC/DPTA-Cu(II); 10 μL peptide (0.001-1 μM) deposited for 30 min; 50 mM TRIS hydrochloride, 300 mM NaCl, pH 7.4; room temperature; response (In−I0)/I0 × 100%; n = 7

(In−I0)/I0 [%] at 0.001 μM [1]: -14%
(In−I0)/I0 [%] at 0.01 μM [1]: -23.9%
(In−I0)/I0 [%] at 0.1 μM [1]: -32.2%
(In−I0)/I0 [%] at 1 μM [1]: -41.2%
(In−I0)/I0 [%] at 0.001 μM [2]: -10.1%
(In−I0)/I0 [%] at 0.01 μM [2]: -17.4%
(In−I0)/I0 [%] at 0.1 μM [2]: -24.2%
(In−I0)/I0 [%] at 1 μM [2]: -32.4%
Substance: Aβ1–40 peptide (from UniProt P05067 672-711)

— article PMC3821307
